Experimental data taken from publication PMC4848466, “Insights into the activation mechanism of class I HDAC complexes by inositol phosphates” (Nature Communications, 2016).

Sequences of proteins named here, by UniProt entry; tags and fusion partners are left off. A change or cut given only in a name is not applied to a line headed by its entry. Residues count along the entry.
UniProt O15379: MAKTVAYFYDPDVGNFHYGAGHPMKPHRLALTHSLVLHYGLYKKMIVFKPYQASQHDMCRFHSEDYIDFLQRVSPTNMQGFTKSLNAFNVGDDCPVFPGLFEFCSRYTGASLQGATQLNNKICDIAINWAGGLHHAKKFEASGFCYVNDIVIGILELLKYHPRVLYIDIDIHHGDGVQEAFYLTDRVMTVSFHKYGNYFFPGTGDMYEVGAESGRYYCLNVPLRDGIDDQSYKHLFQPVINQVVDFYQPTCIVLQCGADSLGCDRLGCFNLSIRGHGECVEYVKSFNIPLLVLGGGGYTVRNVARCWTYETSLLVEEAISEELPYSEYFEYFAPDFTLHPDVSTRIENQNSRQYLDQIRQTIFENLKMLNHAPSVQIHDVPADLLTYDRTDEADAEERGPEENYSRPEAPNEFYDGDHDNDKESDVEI
UniProt Q9Y618, 350-480: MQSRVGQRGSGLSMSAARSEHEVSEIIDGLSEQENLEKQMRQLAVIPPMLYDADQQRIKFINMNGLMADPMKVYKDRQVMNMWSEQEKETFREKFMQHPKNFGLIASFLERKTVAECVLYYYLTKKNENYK

Biological target: HDAC3:SMRT (Homo sapiens, UniProt O15379+Q9Y618)
Experiment: Fluorescence anisotropy direct binding of 2-FAM-Ins(1,3,4,5,6)P5

Q: How did the “enhancement of the binding of 2-FAM-Ins(1,3,4,5,6)P5 to the allosteric site by inhibitor” value turn out when trichostatin A [TSA] was run?
A: Its value is “threefold enhancement”.
